Earlier results as cited in patent US12611425B2, “Compositions and methods for treatment and prevention of pathogens” (WIAB WATER INNOVATION AB, priority 2022, dated 2026).
Like-named read-outs stand apart in the source and are kept apart here.

Conditions: cited from earlier work

chlorous acid
standard reduction potential (basic pH): +0.78 | standard reduction potential (low pH): 1.64
